Experimental data as given in patent US7378387B2, “Method of suppressing immune response by reducing intracellular content of glutathione in macrophages and monocytes” (Ajinomoto Co., Inc., priority 1997, dated 2008).

Columns and labels:
Format in all cases: in vivo, DBA/2 female mice
IL-6 = IL-6 production of MΦ after NAC drinking and/or IL-2 administration (Example 8); details: stimulated with LPS and IFNγ; control mice 1,240 pg/ml
Experimental: A stimulator was added to 1×10^6 MΦ, and the incubation was conducted at 37° C. for 2 days in a CO2 incubator. After centrifugation, the culture supernatant was collected.
The amount of IL-6 was determined using IL-6 dependent mouse hybridoma MH60 cells (J. Eur. Immunol., vol. 18, p. 951, 1988). One hundred microliters of the culture supernatant were added to 100 μl of the MH60 cell suspension adjusted to 1×10^5 cells/ml in a 10% FCS-containing RPMI medium, and the mixed solution was incubated at 37° C. for 2 days in a CO2 incubator. Subsequently, 10 μl of MTT (supplied by Sigma Co.) solution adjusted to a concentration of 5 mg/ml in the same medium were added thereto, and the reaction was conducted at 37° C. for 5 hours. […] Immediately after the dissolution, an absorbance of 570 nm was measured with an immunometer (supplied by Bio-Rad).
(§1) Two groups, namely, a group of 8-week-old DBA/2 female mice which were caused to freely drink city water as in Example 6, and a group of the same female mice which were caused to freely drink city water containing 1 mg/ml of NAC, were prepared. […] On day 14, the IL-12 production from MΦ was measured in the same manner as in Example 6.
(§2) Peritoneal cells were harvested from four groups of the mice, and stimulated with LPS and IFNγ. Then, the NO production, the IL-6 production and the IL-12 production were measured. […]

IL-12 = IL-12 production of MΦ after NAC drinking and/or IL-2 administration (Example 8); details: stimulated with LPS and IFNγ; control mice 0 pg/ml
Experimental: The amount of IL-12 was determined through bioassay using cells of human T cell strain 2D6 (J. Leukocyte Biology, vol. 61, p. 346, 1997).
2D6 cells which had been incubated in an RPMI 1640 medium containing 500 pg/ml of recombinant human IL-12, 50 μM of 2-mercaptoethanol and 10% FCS (fetal calf serum) were moved to a tube, and centrifugally washed three times with the above-mentioned medium without IL-12 and cell density was adjusted to 1×10^5/ml. The cell suspension was added in an amount of 100 μl each to a 96-well flat bottom plate containing a sample serially diluted in advance with an RPMI 1640 medium containing 50 μM of 2-mercaptoethanol and 10% FCS in an amount of 100 μl each. […] The cells a harvested, and the radioactivity was measured using a β counter (Matrix 96, supplied by Packard).
as §1, §2

[1] = test system: reductive glutathione in MΦ; assay: GSH content in MΦ by ACAS after NAC drinking and/or IL-2 administration (Example 8); details: NAC 1 mg/ml in city water; IL-2 intraperitoneally twice a day every two days for two weeks; day 14
Experimental: Three-hundred microliters of a cell suspension adjusted concentration of 3×10^5 cells/ml in an RPMI 1640 medium (phenol red-free) were charged into a chambered coverglass (#136439, supplied by Nunc), and incubated at 37° C. for 2 hours using a CO2 incubator. The culture solution was washed with the medium, and 300 μl of monochlorobimane (supplied by Molecular Plobe) adjusted to 10 μM in the same medium were added thereto. The mixture was charged into a CO2 incubator of 37° C., and the reaction was conducted for 30 minutes. The fluorescent intensity was measured with ACAS. In ACAS, a UV laser was used.
Two groups, namely, a group of 8-week-old DBA/2 female mice which were caused to freely drink city water as in Example 6, and a group of the same female mice which were caused to freely drink city water containing 1 mg/ml of NAC, were prepared. Further, the two groups of the-above-mentioned mice to which human recombinant IL-2 in an amount of 2 pg/0.5 ml/h was intraperitoneally administered twice a day, every two days for two weeks were provided. On day 14, the IL-12 production from MΦ was measured in the same manner as in Example 6.
The peritoneal cells were harvested from the mice which had undergone the respective treatments, and the GSH content in cells was analyzed by ACAS using an MCB reagent.

IL-2: human recombinant IL-2
amount of IL-6 in the macrophage culture supernatant (IL-6): 520 pg/mL | amount of IL-12 (IL-12): 946 pg/mL | content of reductive glutathione in MΦ (ACAS) [1]: markedly increased
